The entries are a selection whose mix differs from that of the whole data set. Active and inactive are the calls of the source. Rule as the data show it: active = inhibition above about 20% (passing the limit was not always enough); inactive = the rest.

Protein sequences, listed by entry. Tags and fused reporters are not part of them. Residues count along the entry.
UniProt P03951, 19-387 limits assumed: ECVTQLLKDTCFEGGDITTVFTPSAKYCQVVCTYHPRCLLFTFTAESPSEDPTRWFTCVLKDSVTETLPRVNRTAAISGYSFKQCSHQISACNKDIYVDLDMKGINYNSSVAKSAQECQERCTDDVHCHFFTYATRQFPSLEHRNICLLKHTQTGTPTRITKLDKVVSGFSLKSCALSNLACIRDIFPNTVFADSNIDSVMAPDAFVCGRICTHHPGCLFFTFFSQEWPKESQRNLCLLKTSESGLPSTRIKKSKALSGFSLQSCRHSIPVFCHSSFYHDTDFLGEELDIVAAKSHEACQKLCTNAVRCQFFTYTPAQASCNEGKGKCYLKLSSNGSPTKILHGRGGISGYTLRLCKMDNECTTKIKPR
UniProt P03951, 388-625 limits assumed: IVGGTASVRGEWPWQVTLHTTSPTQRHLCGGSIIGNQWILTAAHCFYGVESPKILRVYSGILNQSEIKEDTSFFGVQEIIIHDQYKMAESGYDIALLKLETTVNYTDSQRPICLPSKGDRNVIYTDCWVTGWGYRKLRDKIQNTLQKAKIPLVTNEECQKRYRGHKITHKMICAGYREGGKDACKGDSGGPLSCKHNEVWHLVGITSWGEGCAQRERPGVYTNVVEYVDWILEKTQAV

As a reminder, the inhibition is the change of the read-out against control, counted positive when it falls.

The test concerns the target Coagulation factor XI (Homo sapiens) (UniProt P03951). Briefly: human factor XIa inhibition by mixtures – biochemical, 10-compound mixtures, primary screen (AID 680).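 Also: each value is inhibition by a whole ten-compound pool holding the compound; 0% = enzyme with no mixture and 100% = wells lacking enzyme.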 Conditions: purified FXIa, fluorogenic substrate, pooled mixtures; at 5 µM; active compounds read high.
Turning to `COc1ccccc1OP(C)(=O)Nc1ccc(C)cc1` (stereo not drawn), the inhibition is inactive: 6.71%.

On to `Cc1ccc(NP(C)(=O)Oc2ccccc2)c(C)c1` (stereo not drawn), for which the inhibition was inactive: 6.73%. Next, `CCOP(C)(=S)SCC(=O)NC(C)C(=O)O` (stereo not drawn): inactive: -2.4%; `CP(=O)(NC(=O)Nc1ccccc1)Oc1ccccc1` (stereo not drawn): inactive: 10.1%; `CP(=S)(Nn1cnnc1)Oc1ccccc1` (stereo not drawn): inactive: -2.92%.

In the case of `Cc1nc2ccc3ccccc3c2s1.O=[N+]([O-])c1cc([N+](=O)[O-])c(O)c([N+](=O)[O-])c1`, the inhibition is inactive: 6.01%. The result for `Cc1ccc(C)c(NP(C)(=O)Oc2ccccc2)c1` (stereo not drawn) reads inactive: 11.1%. Next, `CP(=O)(Nc1ccccc1F)Oc1ccccc1` (stereo not drawn): inactive: 4.75%. With `Cc1ccccc1NP(C)(=O)Nc1ccccc1C`, the inhibition is inactive: 1.9%.

Consider `CP(=O)(Nc1ccc2c(c1)OCCO2)Oc1ccccc1` (stereo not drawn), for which the inhibition was inactive: 1.8%. Next, `CCOP(C)(=S)SCC(=O)NC(C)(CC)C(=O)O` (stereo not drawn): inactive: 0.93%; `CN(C)CCOC(=O)C(O)(c1ccccc1)C1CCCCC1` (stereo not drawn): inactive: -2.93%; `CP(=O)(Oc1ccccc1)N1CCOC1=O` (stereo not drawn): inactive: 0.1%.

On to `COc1ccccc1OP(C)(=O)Nc1c(C)n(C)n(-c2ccccc2)c1=O` (stereo not drawn), for which the inhibition is inactive: 0.525%. With `CCN(CC)CC(O)COC(=O)C(O)(c1ccccc1)C1CCCCC1` (stereo not drawn), the inhibition was inactive: 6.03%. The result for `CP(=O)(Nc1ccccn1)Oc1ccccc1` (stereo not drawn) reads inactive: 3.92%; that for `Cc1nc2ccc3ccccc3c2o1.O=[N+]([O-])c1cc([N+](=O)[O-])c(O)c([N+](=O)[O-])c1`, inactive: 1.16%; that for `COc1ccccc1OP(C)(=O)Nc1ccc(C)c(C)c1` (stereo not drawn), inactive: -0.03%.

These data come from PubChem BioAssay AID680 (PCMD, 2007).
